Source: PubChem BioAssay AID504606 (National Center for Advancing Translational Sciences (NCATS), 2011)
≈ marks a conversion by molar mass, not a printed value.

Tested on: kinetic aqueous solubility, PBS pH 7.4, LC-UV/MS
Assay: Inhibitors of HPGD: Aqueous Solubility Profiling
Settings: stronger effect = higher value

solubility: 3 µM (≈ 1.04 µg/mL)
Structure (SMILES): N#Cc1ccccc1CSc1nc2ncc(Br)cc2[nH]1
